# Patent US20020132817A1, “Heterocyclic compounds, their production and use” (priority 1998, published 2002)
# System: plasma extravasation induced by capsaicin in trachea of guinea pigs
# Experiment: Inhibitory effect on plasma extravasation induced by capsaicin in trachea of guinea pigs
# Format: in vivo
# Conditions: Cavia porcellus, iv, 5 minutes before capsaicin, Evans' blue dye in trachea, read-out: ID50, μg/kg
# Method: Inhibitory effect on plasma extravasation induced by capsaicin in trachea of guinea pigs.
# Guinea pigs (Hartley type white male guinea pige), (n=6) were anesthetized with 35 mg/kg of pentobarbital injected intraperitoneally (i.p.), then test compounds were administered intravenously (i.v.). After 5 minutes, a mixed solution of capsaicin ([…]) and Evans' blue dye (20 mg/kg) was administered intravenously to cause reaction. Ten minutes later, test animals were sacrificed by cutting the aorta, then perfused through pulmonary artery with 50 ml of physiological saline. The trachea was excised, and its wet weight was measure. The trachea was incubated at room temperature in 1 ml of acetone-0.3% sodium sulfate (7:3) overnight and Evans' blue dye was extracted from the trachea. The extract solution was centrifuged at 2800 rpm for 5 minutes. The amount of Evans' blue dye in the supernatant was quantified by measuring absorbance at […].
# The reaction of accelerating the permeability of blood vessels is expressed in terms of the amount of Evans' blue (μg) per trachea unit weight (g) and the effect of drug was evaluated by calculating the degree of inhibition (% inhibition) according to the following equation: […]
smiles,measurement,value
"Cc1ccc(-c2c3n(c(=O)c4ncccc24)CC[C@@H](C)CN(Cc2cc(C(F)(F)F)cc(C(F)(F)F)c2)C3=O)cc1 [Reference Example 72, (9R)-7-[3,5-Bis(trifluoromethyl)benzyl]-6,7,8,9,10,11-hexahydro-9-methyl-5-(4-methylphenyl)-6,13-dioxo-13H-[1,4]diazocino[2,1-g][1,7]naphthyridine]",ED50,2.6 µg/kg
